# Results published in patent US20110281852A1 (priority 2010, published 2011).
# Tested on: SERT promoter (5-HTTLPR alleles)
# Assay: DRL (dual luciferase reporter) assay, SERT promoter activity of 5-HTTLPR alleles in RN46A cells
# Format: cell-based
# Settings: 100 μM berberine
# Source text: The PCR reaction to amplify the 5-HTTLPR alleles for sequencing and creation of reporter constructs contained primers different than those used for the genotyping experiment.
# These primers amplify a larger region of 5-HTTLPR making it more useful to determine promoter strength. The primer sequences were described previously and are as follows: Forward primer 5′-[…]-3′ (SEQ ID NO:25) and Reverse primer 5′-[…]-3′ (SEQ ID NO:26) (Hu et al., Am J Hum Genet (2006) 78(5):815-826). The PCR products of the six 5-HTTLPR alleles (S, LG, LA, XS, XL-17, and XL-18) were subcloned into the TOPO TA cloning vector pCR2.1-TOPO (Invitrogen) and transformed to One Shot TOP10 competent E. coli cells according to the manufacturer's instructions. In the case of individuals heterozygous for 5-HTTLPR, resulting transformants were screened for the presence of the correct insert using the restriction enzyme EcoR I.
# The resulting constructs, created and sequenced, in the pCR2.1-TOPO vector (S, LG, LA, XS, XL-17, and XL-18 alleles) were subcloned to the luciferase reporter vector pGL4.10 [luc2] (Promega) using standard molecular techniques. Additionally, each allele was cloned into pGL4.10 [luc2] in the backwards orientation to ensure that transcriptional effects were the result of consensus promoter sequences. […] The co-transfection with the 5-HTTLPR pGL4.10 constructs (firefly luciferase) and the pRL-SV40 vector (renilla luciferase) to the RN46A raphe-derived cell line using Lipofectamine 2000 (Invitrogen) was described previously. Expression was measured using the Dual-Luciferase Reporter Assay System (Promega) 24 h after transfection with passive lysis buffer.
# Relative light units (RLU) for both the firefly and renilla luciferase was measured using a 20/20^n Luminometer (Turner Biosystems, Sunnyvale Calif. 94085) and the ratio between the firefly RLU to renilla RLU in each sample was determined. The values were all normalized to the (S) allele.
compound,measurement,setting,value
"COc1ccc2cc3[n+](cc2c1OC)CCc1cc2c(cc1-3)OCO2.[Cl-] [berberine, Berberine (Chloride Form)]",increase of SERT promoter activity vs vehicle,LA allele,100.4%
same,increase of SERT promoter activity vs vehicle,LG allele,106.9%
same,increase of SERT promoter activity vs vehicle,S allele,67%
same,increase of SERT promoter activity vs vehicle,XL17 allele,26.2%
same,increase of SERT promoter activity vs vehicle,XL18 allele,82%
same,increase of SERT promoter activity vs vehicle,XS allele,128.7%
